Values quoted from earlier work as cited in publication PMC6759932.

Tests used:
Test in all cases: SPR
[1] = biological target: HspB5 (αB-crystallin) (Homo sapiens) (UniProt P02511)
[2] = biological target: HspB6 (Homo sapiens) (UniProt O14558)
[3] = biological target: HspB1 (Homo sapiens) (UniProt P04792)
[4] = biological target: HspB8 (Homo sapiens) (UniProt Q9UJY1)
[5] = biological target: HspB2 (Homo sapiens) (UniProt Q16082)

In the case of α-synuclein (from UniProt P37840), the Kd [1] is listed as 60 nM, the Kd [2] is listed as 400 nM and the Kd [3] is listed as 400 nM. The Kd [4] was 4000 nM and the Kd [5] was 4000 nM.
